Reference: patent US6352716B1, “Steroidal liposomes” (The Liposome Company Inc., priority 1984, dated 2002)

Type: physicochemical
Details: pH 7.3
Method: (§1) The 2-amino-2-methyl-1,3-propanediol salt of cholesterol hemisuccinate (50 mg) was added to a 1 ml solution of arsenazo III (4.5 mM, final concentration) in 0.01 M 2-amino-2-methyl-1,3-propanediol-HCl (pH 7.3), 0.07 M KCl, 0.07 M NaCl. The suspension of CHS-MLVs was formed by mixing vortically with glass beads. The CHS-MLVs were pelleted by centrifugation at 10,000×g for 15 minutes, and the resulting pellet was washed three times as described in Section 6.1.1.
as §1, with “2-aminoethanol” for “2-amino-2-methyl-1,3-propanediol”, “2-aminoethanol-HCl” for “2-amino-2-methyl-1,3-propanediol-HCl”, “vertically” for “vortically”
The suspension of CHS-MLVs was formed by mixing vertically with glass beads. The CHS-MLVs were pelleted by centrifugation at 10,000×g for 15 minutes, and the resulting pellet was washed three times as described in Section 6.1.1.
The triethanolamine salt of cholesterol hemisuccinate (50 mg) was added to a 1 ml solution of arsenazo III (4.5 mM, final concentration) in 0.01 M triethanolamine-HCL (pH 7.3), 0.07 M KCl, 0.07 M NaCl. The suspension of CHS-MLVs was formed by mixing vortically with glass beads. […]

## bis-tris-propane salt of cholesterol hemisuccinate
  entrapment of arsenazo III (colour of washed pellet): red in color indicating entrapment of the arsenazo III
